Test results reported in patent US6399782B1, “Benzimidazole inhibitors of fructose 1,6-bisphosphatase” (Metabasis Therapeutics, Inc., priority 1997, dated 2002).

Target: T1, human liver FBPase (Homo sapiens, UniProt P09467)
T1 construct: made in house; host or cells: E. coli BL21
T1 sequence (P09467 2-338 limits assumed): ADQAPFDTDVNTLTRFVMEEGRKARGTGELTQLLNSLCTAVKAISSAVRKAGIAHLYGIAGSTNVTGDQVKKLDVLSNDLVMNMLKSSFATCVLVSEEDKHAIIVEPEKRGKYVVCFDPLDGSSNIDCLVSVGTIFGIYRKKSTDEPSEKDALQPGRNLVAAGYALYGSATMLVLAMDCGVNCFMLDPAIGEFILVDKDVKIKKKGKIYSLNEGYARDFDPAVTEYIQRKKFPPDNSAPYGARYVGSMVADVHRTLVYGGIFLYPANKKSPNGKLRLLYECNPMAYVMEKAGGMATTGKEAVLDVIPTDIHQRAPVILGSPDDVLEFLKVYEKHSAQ
Test: Inhibition of human liver FBPase
Format: biochemical
Settings: result in words

CCc1cc(F)c(N)c2nc(-c3ccc(P(=O)(O)O)o3)n(CC(C)C)c12 [Compound 12.64]
inhibition of human liver FBPase activity (FIG. 2): inhibit human liver FBPase activity in vitro in a dose dependent manner
